Drawing on ChEMBL document CHEMBL3808280, “GroEL/ES inhibitors as potential antibiotics” (Bioorg Med Chem Lett, 2016), this text covers Ratio IC50 for 3 molecules.

The nature of this experiment: Selectivity ratio of IC50 for human HSP60/HSP10 expressed in Escherichia coli Rosetta2(DE3) cells to IC50 for Escherichia coli GroEL/GroES using Escherichia coli GroEL expressed in Escherichia coli DH5alpha cells and Escherichia coli GroES expressed in Escherichia coli BL21(DE3) cells by denatured pig heart MDH refolding assay.
As to `Cc1ccc(S(=O)(=O)Nc2ccc(-c3nc4ccc(NS(=O)(=O)c5ccc(C)cc5)cc4[nH]3)cc2)cc1`, the Ratio IC50 came out at 12.

For the molecule `O=C(Nc1ccc(Sc2nc3ccccc3s2)c(Cl)c1)c1cc(Br)cc(Br)c1O`, the Ratio IC50 stood at 4.

Consider `Cn1c(=O)c(C(=O)Nc2ccncc2)c(O)c2ccccc21`, for which the Ratio IC50 was more than 17.
